Measured affinities in a library of Ab-95 light chain variants

The measurements come from Engelhart et al. 2022 (doi:10.1038/s41597-022-01779-4) through the FLAb antibody collection.

Antigen: PDVDLGDISGINAS, a 14-residue peptide of the SARS-CoV-2 spike HR2 region.

Parent: Ab-95, a human scFv built as VH, a (GGGGS)3 linker, VL. Only the CDRs of the light chain vary.
VH: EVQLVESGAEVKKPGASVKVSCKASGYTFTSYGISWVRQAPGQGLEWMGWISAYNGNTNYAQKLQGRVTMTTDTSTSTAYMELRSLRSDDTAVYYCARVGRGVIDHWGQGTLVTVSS
VL: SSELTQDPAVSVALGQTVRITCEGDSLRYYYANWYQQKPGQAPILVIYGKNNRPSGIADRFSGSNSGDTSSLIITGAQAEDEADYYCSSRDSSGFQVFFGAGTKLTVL

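Phage display of a naive human antibody library on the peptide gave the parent. AAYL52 was designed without a model: most single CDR substitutions and a random sample of double and triple ones. In AlphaSeq, yeast of one mating type display the scFv and yeast of the other type display the target. Mating (16 h, 30 °C) was followed by selection of diploids and sequencing of their barcodes. A regression on co-assayed BCL2-family reference pairs converts the normalised counts of each replicate to an apparent Kd. Mating was done three times.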

Positions count from residue 1 of the parent VL; D25Y puts Y in place of D. This list gathers variants with a substitution at D25 (VL, numbered from residue 1). Values are apparent Kd, the geometric mean of the replicates that gave a signal; lower means stronger binding. "nd" marks a missing value. The strain was present, yet no cells mated with the target were sequenced in any replicate, which points to weak or no binding. Background: pairings of library AAYL52 with three empty control strains gave a value in 28% of cases (median 8.2 µM, 5th percentile 800 nM). Values in that range, when seen in few replicates, are hard to tell from nonspecific mating.

For D25Y, the assay gave 1.1 µM (3 of 3 replicates).
For D25N+R28M+S88M, the assay gave 73 nM (3 of 3 replicates).
For D25Q+G94W, the assay gave 1.7 µM (3 of 3 replicates).
For D25I+R53G+S93C, the assay gave 2.3 µM (2 of 3 replicates).
For D25Q+Y30S+N51S, the assay gave 13 nM (3 of 3 replicates).
For D25C+G49A+F95R, the assay gave nd (0 of 3 replicates).
For D25H+Y30N+A32S, the assay gave 660 nM (3 of 3 replicates).
For D25E, the assay gave 74 nM (3 of 3 replicates).
For G24N+D25E+R90I, the assay gave 5.8 µM (1 of 3 replicates).
For D25A+N51R+D91S, the assay gave 9.9 µM (3 of 3 replicates).
For D25K+R90L+Q96D, the assay gave nd (0 of 3 replicates).
For D25R+N33Q+S89Q, the assay gave nd (0 of 3 replicates).
For D25F+Y30G+G94L, the assay gave 630 nM (3 of 3 replicates).
For D25H+N33D+Q96G, the assay gave 25 µM (2 of 3 replicates).
For D25I+L27V+G94M, the assay gave 640 nM (2 of 3 replicates).
For E23Q+D25F+S89E, the assay gave 8.1 µM (1 of 3 replicates).
For D25V+D91Y+Q96Y, the assay gave 1.8 µM (1 of 3 replicates).
For D25W+S93M, the assay gave 32 µM (1 of 3 replicates).
For G24W+D25R+Y30R, the assay gave 3.3 µM (2 of 3 replicates).
For D25V+Y29W+P54G, the assay gave 1.9 µM (3 of 3 replicates).
For G24H+D25Y, the assay gave 3.6 µM (3 of 3 replicates).
For D25N+D91A+F95A, the assay gave 150 nM (3 of 3 replicates).
For D25R+Y30P+A32L, the assay gave 540 nM (3 of 3 replicates).
For D25K+F95S+F98W, the assay gave 260 nM (2 of 3 replicates).
For D25N+Y31T, the assay gave 130 nM (3 of 3 replicates).
For D25M+Y31K+S92Y, the assay gave 260 nM (3 of 3 replicates).
For E23H+D25I+P54R, the assay gave 2.9 µM (3 of 3 replicates).
For E23P+D25A+R53S, the assay gave nd (0 of 3 replicates).
For D25Q+Y31R+F98H, the assay gave 1.1 µM (3 of 3 replicates).
For E23K+D25A+Y29P, the assay gave 380 nM (3 of 3 replicates).
For D25K+Y30F, the assay gave 750 nM (3 of 3 replicates).
For D25Y+Y29M+Q96C, the assay gave 6.6 µM (3 of 3 replicates).
For D25G+S92K+V97S, the assay gave nd (0 of 3 replicates).
For D25G+G49Y+S93I, the assay gave 2.2 µM (2 of 3 replicates).
For D25I+G49V+R53H, the assay gave 1.2 µM (1 of 3 replicates).
For D25K+R90Q+Q96P, the assay gave 510 nM (3 of 3 replicates).
For D25K+G49F+R53A, the assay gave nd (0 of 3 replicates).
For D25T+S26F+A32H, the assay gave nd (0 of 3 replicates).
For D25G+Y30Q+N51M, the assay gave 75 nM (3 of 3 replicates).
For D25G+R28E+F95E, the assay gave 1.9 µM (2 of 3 replicates).

The first 3 variants above that were never detected:

{"changes": "D25C+G49A+F95R", "apparent Kd": "nd", "replicates with signal": "0 of 3"}
{"changes": "D25K+R90L+Q96D", "apparent Kd": "nd", "replicates with signal": "0 of 3"}
{"changes": "D25R+N33Q+S89Q", "apparent Kd": "nd", "replicates with signal": "0 of 3"}

In this assay the parent's reference entry averaged 200 nM; its copy inside this library read 180 nM.